# Experimental data taken from PubChem BioAssay AID1520 (The Scripps Research Institute Molecular Screening Center, 2009).
# The entries are a selection whose mix differs from that of the whole data set. The source made the active and inactive calls.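 The calls were made as follows: active = cell growth inhibition above the hit limit set in the earlier mutant JAK2 cell screen (cut at about 27% in these data); inactive = the rest.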
# Assay: parental Ba/F3 cell viability inhibition, counter-screen for JAK2V617F inhibitor project, murine pro-B, CellTiter-Glo luminescence (AID 1520);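 also: plate controls were DMSO-treated cells for no effect and JAK Inhibitor I control wells for full effect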
# Details: at 5.6 µM, stronger effect = higher value, cells kept alive by added IL-3
smiles,measurement,value
CC(=O)NC(SC(=S)N(CC(C)C)CC(C)C)C(Cl)(Cl)Cl (stereo unspecified),inhibition,inactive: -4.33%
